Assay results taken from patent publication US7888385B2, “Airway alkalinization as therapy for airway diseases” (priority 2002, dated 2011).

Test system: mycobacteria
Format: in vivo, human
Settings: pH3 by nebulizer four times daily for 9 months, low-glutamine diet

CC(=O)O [acetic acid]
mycobacteria in respiratory secretions: can no longer be identified
